Measurements reported in patent US10780081B2, “Method of treating multiple sclerosis employing a LSD1-inhibitor” (ORYZON GENOMICS, S.A., priority 2016, dated 2020).

Amino acid sequences for entries named in this document (tags omitted).
UniProt P27338, whole entry: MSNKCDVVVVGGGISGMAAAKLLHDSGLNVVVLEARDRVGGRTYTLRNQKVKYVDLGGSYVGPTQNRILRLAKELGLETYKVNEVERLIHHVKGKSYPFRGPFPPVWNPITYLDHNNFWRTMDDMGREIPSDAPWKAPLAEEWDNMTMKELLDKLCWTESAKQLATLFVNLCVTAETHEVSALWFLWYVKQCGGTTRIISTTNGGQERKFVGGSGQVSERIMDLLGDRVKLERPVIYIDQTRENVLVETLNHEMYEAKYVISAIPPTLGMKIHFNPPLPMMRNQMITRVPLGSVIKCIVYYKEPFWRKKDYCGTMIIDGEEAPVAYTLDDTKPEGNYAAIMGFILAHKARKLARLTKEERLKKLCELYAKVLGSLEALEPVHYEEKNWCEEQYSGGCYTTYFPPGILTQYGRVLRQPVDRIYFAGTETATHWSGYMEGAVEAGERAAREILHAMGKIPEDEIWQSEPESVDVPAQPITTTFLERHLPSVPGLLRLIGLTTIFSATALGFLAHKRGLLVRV
UniProt P21397, whole entry: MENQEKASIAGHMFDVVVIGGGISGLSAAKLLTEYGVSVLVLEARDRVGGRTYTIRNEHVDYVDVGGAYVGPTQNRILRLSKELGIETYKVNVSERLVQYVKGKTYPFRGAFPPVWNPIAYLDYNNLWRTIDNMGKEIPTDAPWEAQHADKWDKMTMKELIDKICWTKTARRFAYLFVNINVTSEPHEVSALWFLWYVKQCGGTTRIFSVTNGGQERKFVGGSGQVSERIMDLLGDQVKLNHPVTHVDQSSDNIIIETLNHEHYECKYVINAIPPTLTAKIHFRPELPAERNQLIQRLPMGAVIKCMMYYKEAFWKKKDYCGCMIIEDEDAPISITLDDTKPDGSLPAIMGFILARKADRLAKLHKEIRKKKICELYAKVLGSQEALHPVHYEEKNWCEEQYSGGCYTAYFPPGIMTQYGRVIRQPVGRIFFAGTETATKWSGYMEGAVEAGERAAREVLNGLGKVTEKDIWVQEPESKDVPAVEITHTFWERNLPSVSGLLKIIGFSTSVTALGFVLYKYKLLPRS

Assays:
Human recombinant MAO-B = biological target: T1, Human recombinant MAO-B (Homo sapiens, UniProt P27338); test: MAO-B kynuramine fluorescence assay; type: biochemical
T1 construct: purchased Sigma Aldrich
Description: (§1) Human recombinant monoamine oxidase proteins MAO-A and MAO-B were purchased from Sigma Aldrich. MAOs catalyze the oxidative deamination of primary, secondary and tertiary amines. In order to monitor MAO enzymatic activities and/or their inhibition rate by inhibitor(s) of interest, a fluorescence-based (inhibitor)-screening assay was set up. 3-(2-Aminophenyl)-3-oxopropanamine (kynuramine dihydrobromide, Sigma Aldrich), a non fluorescent compound was chosen as a substrate. Kynuramine is a non-specific substrate for both MAO-A and MAO-B activities. While undergoing oxidative deamination by MAO activities, kynuramine is converted into 4-hydroxyquinoline (4-HQ), a resulting fluorescent product.
The monoamine oxidase activity was estimated by measuring the conversion of kynuramine into 4-hydroxyquinoline. […]
(§2) After leaving the enzyme(s) interacting with the inhibitor, KM of kynuramine was added to each reaction for MAO-B and MAO-A assay respectively, and the reaction was left for 1 hour at 37° C. in the dark. […] The conversion of kynuramine to 4-hydroxyquinoline, was monitored by fluorescence (excitation at 320 nm, emission at 360 nm) using a microplate reader (Infinite 200, Tecan). Arbitrary units were used to measure levels of fluorescence produced in the absence and/or in the presence of inhibitor.
The IC50 values of each inhibitor were calculated with GraphPad Prism Software.

Human recombinant MAO-A = biological target: T2, Human recombinant MAO-A (Homo sapiens, UniProt P21397); test: MAO-A kynuramine fluorescence assay; type: biochemical
T2 construct: purchased Sigma Aldrich
Description: LSD1 has a fair degree of structural similarity and amino acid identity/homology with the flavin-dependent amine oxidases monoamine oxidase A (MAO-A) and B (MAO-B). To determine the level of selectivity of a LSD1 inhibitor versus MAO-A and MAO-B, the inhibitory activity of a compound of interest against MAO-A and MAO-B can be tested using the method described below:
as §1, with “Kynuramine is a non-specific substrate for both MAO-A and MAO-B activities. While undergoing oxidative deamination by MAO activities, kynuramine is converted into 4-hydroxyquinoline (4-HQ), a resulting fluorescent product.” left out
as §2, with “inhibitor. […]” for “inhibitor.”

## Fc1ccccc1[C@@H]1C[C@H]1NC1CCNCC1 [ORY-LSD1, N-((1R,2S)-2-(2-fluorophenyl)cyclopropyl)piperidin-4-amine, reference compound]
Human recombinant MAO-B
  IC50: > 100 µM
Human recombinant MAO-A
  IC50: > 100 µM
